## AlphaSeq binding of Ab-14 light chain variants to a spike HR2 peptide

Data: MIT Lincoln Laboratory AlphaSeq set, Li et al. 2023, doi:10.1038/s41467-023-39022-2, as distributed in FLAb.

Antigen: PDVDLGDISGINAS, a 14-residue peptide of the SARS-CoV-2 spike HR2 region.

Parent scFv Ab-14: VH joined to VL by three GGGGS repeats. Changes lie in the light chain CDRs alone.
VH: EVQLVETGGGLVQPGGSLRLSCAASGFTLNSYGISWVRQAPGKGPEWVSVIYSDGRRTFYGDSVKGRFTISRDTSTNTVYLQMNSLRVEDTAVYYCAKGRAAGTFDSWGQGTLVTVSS
VL: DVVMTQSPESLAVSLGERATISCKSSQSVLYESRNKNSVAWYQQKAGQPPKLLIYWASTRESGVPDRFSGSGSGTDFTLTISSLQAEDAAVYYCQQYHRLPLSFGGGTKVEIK

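The starting antibody came from a phage panning campaign against this peptide. Designed CDR sequences, proposed from the first random library and measured here. Their group label is 14L_En_Gibbs (En: ensemble of fine-tuned language models; Gibbs: Gibbs sampling). The assay is AlphaSeq: two haploid yeast populations carry antibody and antigen on their surface. Mating (16 h, 30 °C) was followed by selection of diploids and sequencing of their barcodes. A regression on co-assayed BCL2-family reference pairs converts the normalised counts of each replicate to an apparent Kd. Mating was done six times.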

The parent's light chain CDRs are KSSQSVLYESRNKNSVA, WASTRES, QQYHRLPLS; each variant's own CDRs replace them letter for letter.
The read-out is the apparent dissociation constant on a log10 scale (nM): the lower, the stronger.
A mean of the replicates is given; it leaves out those without a signal.
Where no diploid with the target was found in that replicate, the entry reads "nd": below detection, most likely a poor binder, though not proof of it.
A sequence measured in both rounds can read differently, since the two assays cover different ranges.

| CDR-L1 | CDR-L2 | CDR-L3 | replicates, log10 nM | mean log10 Kd (nM) | signal with controls |
|---|---|---|---|---|---|
| AFSESAFYGQRDENAIA | GADVVAK | QQYWRLPLT | 0.47 0.36 0.13 0.00 0.67 0.47 | 0.35 | 0 of 18 |
| NVRDSLGYEQNVGSAVA | ETSQVED | QQYYTLPLA | 1.69 1.39 1.42 1.58 1.32 1.26 | 1.44 | 0 of 18 |
| MLSQVHDYNGYRGNSVA | NVDERNT | QQYKQLPLI | 0.23 0.25 0.29 0.09 0.45 -0.17 | 0.19 | 0 of 18 |
| VLGGQWGLGTTNNSSIA | NDSETML | QQYWRLPFM | nd 2.29 1.75 1.83 1.74 2.73 | 2.07 | 3 of 18 (2.79) |
| HVTMELAMEKNSYRNIA | DASMRLA | QQYVRLPLG | 0.78 -0.19 0.04 0.12 0.08 0.21 | 0.17 | 1 of 18 (1.34) |
| SLHMYTLGEKNANSSIA | EKSYRAI | QQYSHLPLC | nd 2.22 0.68 1.06 1.39 nd | 1.34 | 0 of 18 |
| KLSISIRGEGSEVQSVA | GAEELRQ | QHYNRLPLS | nd nd nd nd nd nd | nd | 1 of 18 (1.42) |
| QFHSHMAGDQRNDHSIA | NATWAVP | QQYFRLPLS | 0.99 1.04 1.11 0.89 1.41 0.84 | 1.05 | 0 of 18 |
| RLNDYQYAITGDTYAIA | NARETLM | QQYMRLPLT | 1.05 0.35 0.64 0.38 0.27 0.78 | 0.58 | 1 of 18 (3.68) |
| NLSWKQIGQNMESMAVA | HTEQRNA | QQYARLPLS | 0.29 0.16 -0.09 0.11 -0.02 0.18 | 0.11 | 0 of 18 |
| FLGYQQDGNGLQRQAVA | NVNMKEY | QQYGRLPLM | 1.56 1.18 0.82 1.02 1.36 1.03 | 1.16 | 0 of 18 |
| KLAMALSVEFGTYHGVA | DADHRAD | QQYNRLPLS | 0.65 0.63 0.73 0.21 0.25 0.64 | 0.52 | 1 of 18 (2.39) |
| NLVSKADYMDSERQNIA | NMDQRNT | QQYFHLPLT | 0.84 0.73 0.61 0.91 0.70 0.61 | 0.73 | 1 of 18 (2.77) |
| FFALIQDSMGEAKNSIA | DRNTKAH | QQYSRLPLV | 0.76 0.64 0.95 0.57 0.85 0.81 | 0.76 | 2 of 18 (2.43) |
| HMTIDTEMEAKHQNSVA | EASHTEY | QQYSELPLT | nd nd nd nd nd nd | nd | 0 of 18 |
| ALELEEMQMMKDINSIA | NTEYKTR | QQYFRLPIS | 2.99 0.58 0.81 1.16 1.15 0.94 | 1.27 | 0 of 18 |
| HIQDDAGGLTEQFDSVA | STEERSY | QQYSRLPLS | 1.46 0.80 0.86 0.86 1.19 1.54 | 1.12 | 1 of 18 (2.92) |
| MLKMENEEFNFDKNSVA | EAVEKES | QQYHRLPIT | nd nd nd 1.75 1.88 1.92 | 1.85 | 0 of 18 |
| KMQTLMYTANIGENSVA | DANVHVD | QQYFRLPLS | 0.82 1.22 0.40 0.44 1.06 0.90 | 0.81 | 1 of 18 (1.54) |
| KFKQLFNMWARNHGNVA | DADERNV | QQYSRLPIS | 0.76 0.52 0.85 0.76 1.02 0.93 | 0.81 | 0 of 18 |
| HIDQQTSYDNGEERAIA | DVTIRDW | QQYARLPLL | 2.64 1.42 1.25 1.92 1.49 1.87 | 1.77 | 1 of 18 (3.56) |
| SISYLDYRGSQGHNNIA | EGSQRAE | QQYIRLPLN | 0.51 0.42 0.26 0.27 0.34 0.58 | 0.40 | 0 of 18 |
| KLVGVDDNDNKPMSAIA | DVNTLDN | QQYFRLPLD | 1.18 1.05 1.17 1.22 1.22 1.51 | 1.23 | 5 of 18 (2.64) |
| GILSQMDGPTEYKENIA | NGNERLP | QQYQRLPLT | 0.48 0.49 0.54 0.20 0.63 0.52 | 0.48 | 0 of 18 |
| MIEIIHDGYDEMRSAIA | DTSLVRM | QQYYRLPLM | nd nd 0.32 nd nd nd | 0.32 | 0 of 18 |
| QLGHYKHENMAKWQNVA | NMTIREK | QQYAHLPLA | 1.75 0.95 1.16 0.86 1.43 0.94 | 1.18 | 0 of 18 |
| KVEEEGDVFARIDNSVA | EMSMVLD | QQYHRLPLA | 1.84 0.98 1.14 0.91 1.12 1.51 | 1.25 | 1 of 18 (2.12) |
| MIEIIHDGYMEMRSAIA | DTSLVRM | QQYYRLPLM | nd nd nd nd nd nd | nd | 0 of 18 |
| SLTSHEEESEGAHASVA | EASMLES | QQYHRLPLM | nd nd nd nd nd nd | nd | 0 of 18 |
| TLMHHQDYQDEWKKSIA | NAIIRER | QQYSRLPLA | 1.74 1.33 1.29 0.92 1.08 1.71 | 1.35 | 1 of 18 (3.18) |
| SLAMLLDQVYAYGSNIA | NAAELVV | QQYYRLPLT | nd nd nd nd nd nd | nd | 0 of 18 |

The 4 strongest on average among those seen in every replicate, once more:

CDR-L1	CDR-L2	CDR-L3	replicates, log10 nM	mean log10 Kd (nM)	signal with controls
NLSWKQIGQNMESMAVA	HTEQRNA	QQYARLPLS	0.29 0.16 -0.09 0.11 -0.02 0.18	0.11	0 of 18
HVTMELAMEKNSYRNIA	DASMRLA	QQYVRLPLG	0.78 -0.19 0.04 0.12 0.08 0.21	0.17	1 of 18 (1.34)
MLSQVHDYNGYRGNSVA	NVDERNT	QQYKQLPLI	0.23 0.25 0.29 0.09 0.45 -0.17	0.19	0 of 18
AFSESAFYGQRDENAIA	GADVVAK	QQYWRLPLT	0.47 0.36 0.13 0.00 0.67 0.47	0.35	0 of 18

As a blank, each scFv also met three strains without target: over all light chain designs, 4% of these pairings were detected, typically at 2.64 and seldom below 1.59. For each scFv, signals with the empty controls are counted beside the result, with their mean in brackets.
The authors' rule: three or more of the six replicates give a measured affinity, fewer mean a poor binder.